The text below walks through data of PMC7030922.

This is one part of the list.

This test concerns the target Sodium/potassium-transporting ATPase subunit alpha-1 (UniProt Q8VDN2). The experiment in a line: cross-link between two proteins; cross-linking mass spectrometry.

“Proline-rich transmembrane protein 2, E9PUL5”: the “listed as a hit” value was “yes”.
